Test results reported in PubChem BioAssay AID651725 (National Center for Advancing Translational Sciences (NCATS), 2012).
This is a selection; strong and weak results do not stand in their true shares. Calls of active or inactive are those of the source. Cut-off read from the data, not from the text of the source: active = activity change below about -65%; inconclusive = mostly about -30% to -63%; inactive = weaker than that.

By UniProt entry, the sequences of proteins in these tests, tags left out.
UniProt Q15475, whole entry: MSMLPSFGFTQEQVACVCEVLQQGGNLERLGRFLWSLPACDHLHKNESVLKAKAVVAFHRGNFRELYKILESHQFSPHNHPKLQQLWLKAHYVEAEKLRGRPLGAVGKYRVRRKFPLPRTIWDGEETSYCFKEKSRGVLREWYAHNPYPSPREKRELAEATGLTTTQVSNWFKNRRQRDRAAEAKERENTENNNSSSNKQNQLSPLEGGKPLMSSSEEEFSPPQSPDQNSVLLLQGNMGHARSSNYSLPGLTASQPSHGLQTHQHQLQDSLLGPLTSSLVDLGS

Each compound was assayed against Homeobox protein SIX1 (Homo sapiens) + Protein phosphatase EYA2 (Homo sapiens) (UniProt Q15475+O00167) (assay: qHTS Assay for Inhibitors of the Six1/Eya2 Interaction). Conditions: AlphaScreen GST-Six1/His-Eya2 binding, biochemical; active compounds read low.
Summary of the method: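 GST-Six1 + His-Eya2 (5X stock: 250/500 nM); Tris pH 8.0, 300 mM NaCl, 0.05% BSA, 0.02% Tween 20; GSH donor/Ni acceptor beads; 1 h 37 °C dark; AlphaScreen readout.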
% is set by controls: 0 for no effect and ±100 for the full control effect.

Row | SMILES | activity change
1 | O=[N+]([O-])c1cc([N+](=O)[O-])c(-c2ccn[nH]2)s1 | inactive: -7.41%
2 | COc1ccccc1OP(C)(=O)Nc1cc(Cl)ccc1C (stereo unspecified) | inactive: -1.44%
3 | CC(C)NC(=O)NP(=O)(Oc1ccccc1)Oc1ccccc1 | inactive: 3.07%
4 | CCN(CC)C(=S)SC(NC=O)C(Cl)(Cl)Cl (stereo unspecified) | inactive: 5.46%
5 | O=C(OC1CN2CCC1CC2)c1cccc2[nH]cnc12 (stereo unspecified) | inactive: -2.41%
6 | O=P(Nc1nccs1)(Oc1ccccc1)Oc1ccccc1 | inactive: 2.64%
7 | O=P(Nc1nccs1)(c1ccccc1)c1nc2ccccc2s1 (stereo unspecified) | inactive: -4.75%
8 | CCOP1(=S)c2c(C)nn(CCC#N)c2N=C(c2ccccc2F)N1C (stereo unspecified) | inactive: -1.05%
9 | O=C(O)COc1ccc([As](=O)(O)O)cc1[N+](=O)[O-] | inactive: 8.03%
10 | NC(=O)Nc1ccc([As](=O)(O)O)cc1 | inactive: 3.09%
11 | CC1=NCCc2c1[nH]c1ccccc21.O=[N+]([O-])c1cc([N+](=O)[O-])c(O)c([N+](=O)[O-])c1 | inactive: -11.4%
12 | CN(C(=O)Cc1ccc(Cl)c(Cl)c1)[C@H]1CC[C@@]2(CCCO2)C[C@@H]1N1CCCC1 | inactive: 5.92%
13 | O=[N+]([O-])c1ccc2c(c1)nnn2O | inactive: -6.52%
14 | CN(C)C(=O)c1cc([N+](=O)[O-])cc2c1-c1c(cc([N+](=O)[O-])cc1[N+](=O)[O-])C2=O | inactive: -28.4%
15 | CCOP1(=S)c2c(C)nn(CCC#N)c2N=C(c2ccc(F)cc2)N1C (stereo unspecified) | inactive: -3.86%
16 | CN(C(=O)Cc1ccccc1)[C@@H]1CC[C@]2(CCCO2)C[C@H]1N1CCCC1 | inactive: 4.44%
17 | N#CCCN(C(=O)COC(=O)C(O)(c1ccccc1)c1ccccc1)c1ccc(F)cc1 | inactive: -11.6%
18 | COc1ccccc1OP(C)(=O)Nc1cccc(Br)c1 (stereo unspecified) | inactive: -0.188%
19 | CS(=O)(=O)c1ccc(Cl)c(NC(=O)COC(=O)C(O)(c2ccccc2)c2ccccc2)c1 | inactive: -2.23%
20 | O=[As](O)(O)c1cccnc1 | inactive: 6.09%
21 | COc1cc(C(=O)NCC2(N3CCOCC3)CCCCC2)cc(Cl)c1OC(C)C | inactive: -0.727%
22 | O=C(OC1CN2CCC1CC2)c1ccc(Cl)cc1 (stereo unspecified) | inactive: -1.82%
23 | CCOC(=O)c1ccc(NP(C)(=O)Oc2cc(C)cc(C)c2)cc1 (stereo unspecified) | inactive: 0.0457%
24 | Cc1cc(C)cc(OP(C)(=O)Nc2ccc(C)cc2C)c1 (stereo unspecified) | inactive: -0.792%
25 | Cc1cccc(OCC(=O)OC2CN3CCC2CC3)c1 (stereo unspecified) | inactive: 15.2%
26 | O=[As](O)(c1cccc(O)c1)c1cccc(O)c1 | inactive: 4.05%
